# “And” between values parts separate entries of the source, which are not always exact repeats. Identical values can stand only once. The list shows a part of the results, in another mix than the full data. Results filed as inconclusive are left out. For some assays here: Results with a measured potency or affinity are listed apart. The source made the active and inactive calls. Unless noted, the call rests on the fitted dose curve.
# The chains behind the UniProt entries cited, without tags or fusion partners. Residues count along the entry.
# UniProt P08659, whole entry: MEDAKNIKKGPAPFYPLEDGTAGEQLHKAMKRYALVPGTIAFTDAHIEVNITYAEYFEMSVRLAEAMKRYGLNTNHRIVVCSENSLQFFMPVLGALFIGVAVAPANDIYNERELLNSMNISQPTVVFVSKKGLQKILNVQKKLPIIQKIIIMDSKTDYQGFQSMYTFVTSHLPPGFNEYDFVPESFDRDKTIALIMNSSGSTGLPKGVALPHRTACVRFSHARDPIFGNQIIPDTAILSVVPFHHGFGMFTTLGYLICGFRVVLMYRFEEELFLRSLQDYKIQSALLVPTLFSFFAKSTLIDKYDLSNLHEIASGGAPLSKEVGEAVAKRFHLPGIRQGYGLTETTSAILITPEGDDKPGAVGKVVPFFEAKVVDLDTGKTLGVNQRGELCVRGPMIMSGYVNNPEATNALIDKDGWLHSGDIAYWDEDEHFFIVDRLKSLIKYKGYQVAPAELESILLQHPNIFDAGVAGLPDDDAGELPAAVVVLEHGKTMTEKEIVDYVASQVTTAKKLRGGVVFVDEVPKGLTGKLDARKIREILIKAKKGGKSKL
# UniProt Q12809, 1-548 isoform 6: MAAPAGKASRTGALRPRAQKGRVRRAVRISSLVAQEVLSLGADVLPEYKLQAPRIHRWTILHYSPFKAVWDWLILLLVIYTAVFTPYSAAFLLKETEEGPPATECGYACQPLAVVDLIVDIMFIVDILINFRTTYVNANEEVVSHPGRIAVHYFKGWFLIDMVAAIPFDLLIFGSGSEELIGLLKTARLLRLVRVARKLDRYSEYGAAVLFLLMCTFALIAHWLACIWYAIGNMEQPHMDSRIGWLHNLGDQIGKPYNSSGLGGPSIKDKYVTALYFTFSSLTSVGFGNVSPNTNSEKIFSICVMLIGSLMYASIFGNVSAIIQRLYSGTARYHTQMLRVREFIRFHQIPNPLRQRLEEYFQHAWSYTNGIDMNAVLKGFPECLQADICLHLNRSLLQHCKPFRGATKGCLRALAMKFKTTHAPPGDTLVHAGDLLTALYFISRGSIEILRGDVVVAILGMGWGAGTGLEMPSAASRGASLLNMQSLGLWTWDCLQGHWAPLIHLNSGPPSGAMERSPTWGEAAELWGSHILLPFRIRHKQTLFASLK
# UniProt Q03181, whole entry: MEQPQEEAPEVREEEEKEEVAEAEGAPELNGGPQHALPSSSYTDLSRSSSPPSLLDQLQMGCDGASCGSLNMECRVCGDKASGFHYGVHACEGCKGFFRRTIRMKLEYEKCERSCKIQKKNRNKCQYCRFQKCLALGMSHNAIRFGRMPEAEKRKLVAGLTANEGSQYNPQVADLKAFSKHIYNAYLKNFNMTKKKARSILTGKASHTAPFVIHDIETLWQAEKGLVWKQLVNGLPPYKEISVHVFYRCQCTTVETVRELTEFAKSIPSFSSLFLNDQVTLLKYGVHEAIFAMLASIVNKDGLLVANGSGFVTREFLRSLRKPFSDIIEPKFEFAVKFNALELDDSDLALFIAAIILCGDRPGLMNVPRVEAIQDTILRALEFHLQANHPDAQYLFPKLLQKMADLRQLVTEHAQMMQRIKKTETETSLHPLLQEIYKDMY
# UniProt P10828, whole entry: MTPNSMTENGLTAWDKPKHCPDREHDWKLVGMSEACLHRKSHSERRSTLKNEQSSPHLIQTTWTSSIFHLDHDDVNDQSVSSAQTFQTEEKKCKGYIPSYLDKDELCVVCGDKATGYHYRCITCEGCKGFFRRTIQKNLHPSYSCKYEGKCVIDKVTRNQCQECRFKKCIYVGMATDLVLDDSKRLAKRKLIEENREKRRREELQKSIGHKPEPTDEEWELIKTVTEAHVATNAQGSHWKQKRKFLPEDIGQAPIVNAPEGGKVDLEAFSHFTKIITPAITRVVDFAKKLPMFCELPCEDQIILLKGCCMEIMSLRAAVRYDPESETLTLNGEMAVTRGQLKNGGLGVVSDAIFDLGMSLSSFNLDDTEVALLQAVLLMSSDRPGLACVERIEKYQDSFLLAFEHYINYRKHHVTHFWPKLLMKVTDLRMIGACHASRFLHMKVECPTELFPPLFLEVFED
# UniProt O94925, whole entry: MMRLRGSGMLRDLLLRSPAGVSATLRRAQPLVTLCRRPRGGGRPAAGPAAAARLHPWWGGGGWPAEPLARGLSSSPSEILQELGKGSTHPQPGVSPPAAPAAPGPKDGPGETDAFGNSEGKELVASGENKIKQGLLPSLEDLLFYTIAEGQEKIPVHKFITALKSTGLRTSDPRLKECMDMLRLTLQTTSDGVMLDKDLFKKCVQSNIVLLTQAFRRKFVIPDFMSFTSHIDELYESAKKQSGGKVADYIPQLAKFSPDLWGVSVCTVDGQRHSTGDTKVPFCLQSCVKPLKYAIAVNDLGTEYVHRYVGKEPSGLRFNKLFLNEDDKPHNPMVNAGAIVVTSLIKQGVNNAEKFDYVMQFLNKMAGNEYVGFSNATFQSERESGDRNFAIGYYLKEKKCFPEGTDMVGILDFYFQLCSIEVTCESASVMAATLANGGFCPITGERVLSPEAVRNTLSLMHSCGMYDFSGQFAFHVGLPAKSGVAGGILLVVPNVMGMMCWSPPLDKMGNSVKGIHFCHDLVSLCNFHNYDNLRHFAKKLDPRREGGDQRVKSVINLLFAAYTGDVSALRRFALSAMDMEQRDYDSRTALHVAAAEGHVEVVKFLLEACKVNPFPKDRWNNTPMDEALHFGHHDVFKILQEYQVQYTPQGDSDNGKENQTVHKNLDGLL
# UniProt P43220, whole entry: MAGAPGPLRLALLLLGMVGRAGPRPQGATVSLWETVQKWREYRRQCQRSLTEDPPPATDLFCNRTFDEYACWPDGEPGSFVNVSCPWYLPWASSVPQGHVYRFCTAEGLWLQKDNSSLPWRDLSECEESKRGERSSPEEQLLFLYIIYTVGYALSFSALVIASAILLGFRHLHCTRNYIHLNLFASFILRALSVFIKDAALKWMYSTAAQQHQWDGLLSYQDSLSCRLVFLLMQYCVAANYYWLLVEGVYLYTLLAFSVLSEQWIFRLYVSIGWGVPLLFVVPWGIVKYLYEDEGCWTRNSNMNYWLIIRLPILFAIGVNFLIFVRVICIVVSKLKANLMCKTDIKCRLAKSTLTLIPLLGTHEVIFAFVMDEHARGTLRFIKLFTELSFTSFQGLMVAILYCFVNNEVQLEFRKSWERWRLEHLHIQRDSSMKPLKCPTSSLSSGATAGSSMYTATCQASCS
# Experiments:
# [1] = target: Peroxisome proliferator-activated receptor gamma (Homo sapiens) (UniProt P37231); test: qHTS assay for small molecule agonists of peroxisome proliferator-activated receptor gamma signaling (AID 588536; active means well fitted curve in the direction sought with a large enough effect in the signal ratio, with a control signal flat, not every such curve was filed as active; the % refers to the signal ratio;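 further: 0% = DMSO basal wells and 100% = rosiglitazone at 2 µM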); conditions: HEK293 PPARg-UAS-bla, beta-lactamase ratio, 16 h, percent of rosiglitazone response, DMSO as zero; at 76.7 µM (top of the series)
# Outline: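 Cells were plated and held 6–6.5 h at 37 C, then compounds were added as a titration series. After a further 16 h, CCF4 dye was loaded for 2 h at room temperature and emission at 460/530 nm recorded.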
# [2] = target: Peroxisome proliferator-activated receptor gamma (Homo sapiens) (UniProt P37231); test: qHTS assay for small molecule antagonists of peroxisome proliferator-activated receptor gamma signaling (AID 588537; active means well fitted inhibition curve with a large enough effect in the signal ratio, with a control signal flat, not every such curve was filed as active; the % refers to the signal ratio; further: potency means the concentration at half of the fitted maximal effect;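 on activity, negative = inhibition: reporter cells co-stimulated with 50 nM rosiglitazone agonist during compound treatment; % of control where 0% means no effect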)
# Outline: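 Compounds are tested as concentration series for inhibition of rosiglitazone-driven (50 nM) reporter expression in GeneBLAzer PPAR-gamma-UAS-bla HEK293 cells. After 16 h at 37 C, CCF4 substrate is added for 2 h at room temperature and blue/green fluorescence is measured.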
# [3] = target: Retinoic acid receptor RXR-alpha (Homo sapiens) (UniProt P19793); test: qHTS assay for small molecule agonists of retinoid X receptor alpha signaling (AID 588544); conditions: HEK293T RXRa-UAS-bla, beta-lactamase reporter, 18 h; at 76.7 µM (top of the series);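 further: 0% = DMSO basal wells and 100% = reference agonist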
# [4] = target: Retinoic acid receptor RXR-alpha (Homo sapiens) (UniProt P19793); test: qHTS assay for small molecule antagonists of retinoid X receptor alpha signaling (AID 588546; active means well fitted inhibition curve with a large enough effect in the signal ratio, with a control signal flat, not every such curve was filed as active; the % refers to the signal ratio;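 further: cells stimulated with 9-cis-retinoic acid as agonist; on the % scale 0 is the no-effect control and ±100 the full control effect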); conditions: HEK293T RXRa-UAS-bla, beta-lactamase ratio, antagonist mode
# Outline: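 Beta-lactamase reporter inhibition, read as CCF4 fluorescence ratio (ex 405, em 460/530 nm) after 2 h at RT. HEK293T UAS-bla cells, 2500/well, were stimulated with 9-cis-RA at 500 or 100 nM final alongside test compound for 18 h at 37 C.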
# [5] = target: Luciferin 4-monooxygenase (Photinus pyralis) (UniProt P08659); test: Biochemical firefly luciferase enzyme assay for NPC (AID 624030; active means well fitted curve in the direction sought with a large enough effect; an effect the other way counts as inactive or inconclusive;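 further: purified P. pyralis luciferase at 10 nM with luciferin and ATP substrate; 0% = DMSO and -100% = full luciferase inhibition by PTC124 control; nearly all actives have a fitted effect of over 70% in size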); conditions: purified P. pyralis luciferase, luminescence, 5 min
# Outline: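 Counter-screen for direct inhibition of the luciferase enzyme by approved-drug library compounds, run at 10 nM enzyme in 50 mM Tris acetate (final). Luminescence was read within 5 min of enzyme-buffer addition and normalized to PTC124 versus DMSO (0%).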
# [6] = S16 Schwann cell viability assay (CellTiter-Glo assay) (AID 624031; active means well fitted curve in the direction sought with a large enough effect; an effect the other way counts as inactive or inconclusive;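 further: native untransfected S16 rat Schwann cells; cellular ATP luminescence as a viability measure; plate controls were DMSO-treated cells for no effect and cell-free wells for full effect; nearly all actives have a fitted effect of over 70% in size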); conditions: S16 rat Schwann cells viability, 24 h; at 57.5 µM (top of the series) unless noted
# Outline: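 Rat S16 Schwann cells without reporter constructs received compound or DMSO for 24 h at 37 °C under 5% CO2. Cellular ATP was then quantified by CellTiter-Glo luminescence, with vehicle wells defined as 0% activity and cell-free wells as reference.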
# [7] = S16 Schwann cell PMP22 intronic element beta-lactamase assay (AID 624044); conditions: S16 rat Schwann cells, PMP22 element beta-lactamase FRET, 24 h; at 38.3 µM (top of the series) unless noted;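 further: 0% = DMSO and -100% = potassium clavulanate positive control; nearly all actives have a fitted effect of over 15% in size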
# [8] = qHTS assay for small molecule activators of the nuclear factor-kappa B (NF-kB) signaling pathway (AID 651749; active means well fitted activation curve with a large enough effect in the signal ratio; the % refers to the signal ratio; further: % of control where 0% means no effect); conditions: NF-kB-bla ME-180 cells, beta-lactamase FRET ratio, 16 h; stronger effect = higher value
# Outline: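 Human ME-180 cervical cells with an NF-kB-bla construct; compounds added via 23 nL pin transfer, DMSO as vehicle; incubation 16 hr. Reporter activity measured by FRET disruption.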
# [9] = target: Voltage-gated inwardly rectifying potassium channel KCNH2 (Homo sapiens) (UniProt Q12809); test: qHTS Assay for Small Molecule Inhibitors of the Human hERG Channel Activity (AID 588834; active means well fitted curve in the direction sought with a large enough effect; an effect the other way counts as inactive or inconclusive;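 further: U2OS cells transduced with hERG by BacMam; top concentration of the series differs between compounds; on the % scale 0 is the no-effect control and ±100 the full control effect; lower thallium flux fluorescence means stronger hERG block; nearly all actives have a fitted effect of over 50% in size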); conditions: U2OS BacMam hERG, FluxOR thallium flux fluorescence
# [10] = S16 Schwann cell PMP22 intronic element firefly luciferase assay (AID 624032; active means well fitted curve in the direction sought with a large enough effect; an effect the other way counts as inactive or inconclusive;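 further: plate controls were DMSO for no effect and PTC124 positive control mean for full effect; nearly all actives have a fitted effect of over 30% in size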)
# [11] = target: Peroxisome proliferator-activated receptor delta (Homo sapiens) (UniProt Q03181); test: qHTS assay for small molecule antagonists of peroxisome proliferator-activated receptor delta signaling (AID 588535; active means well fitted inhibition curve with a large enough effect in the signal ratio, with a control signal flat, not every such curve was filed as active; the % refers to the signal ratio); conditions: HEK293T PPARd-UAS-bla, beta-lactamase FRET ratio, 18 h; at 76.7 µM (top of the series)
# [12] = target: Vitamin D3 receptor (Homo sapiens) (UniProt P11473); test: qHTS assay for small molecule antagonists of vitamin D receptor signaling (AID 588541); conditions: HEK293T VDR-UAS-bla, beta-lactamase ratio, antagonist mode; at 76.7 µM (top of the series);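 further: receptor activated by calcitriol during compound treatment; on the % scale 0 is the no-effect control and ±100 the full control effect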
# Outline: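 VDR-UAS-bla HEK293T cells (2000/well, 2% charcoal-stripped FBS) were treated with titrated compounds plus 1-alpha,25-dihydroxyvitamin D3 (50 nM or 3 nM final) for 16 h at 37 C. CCF4 beta-lactamase fluorescence was read; Hill fits gave IC50.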
# [13] = target: Vitamin D3 receptor (Homo sapiens) (UniProt P11473); test: qHTS assay for small molecule agonists of vitamin D receptor signaling (AID 588543); conditions: HEK293T VDR-UAS-bla, beta-lactamase ratio, 16 h; at 76.8 µM (top of the series);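 further: 0% = DMSO basal and 100% = reference agonist control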
# Outline: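 qHTS in agonist mode: compound titrations stimulate a VDR-driven β-lactamase reporter in HEK293T cells over 16 h at 37 °C. Response normalized to 50 nM 1α,25-dihydroxyvitamin D3 = 100%, DMSO = 0%; Hill fitting gives EC50 and maximal response.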
# [14] = target: Thyroid hormone receptor beta (Homo sapiens) (UniProt P10828); test: qHTS assay for small molecule agonists of thyroid hormone receptor beta signaling (AID 588545); conditions: TR-UAS-bla GripTite HEK 293, beta-lactamase ratio, agonist mode, 18 h, percent of T3 response, DMSO as zero; at 76.7 µM (top of the series)
# Outline: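 In this cell-based screen, titrated compounds act on HEK 293 cells held in medium with 2% charcoal/dextran FBS, NEAA and pyruvate for 18 hrs at 37 C. Responses are expressed relative to T3 (10 nM) as 100% and basal DMSO as 0%.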
# [15] = target: Thyroid hormone receptor beta (Homo sapiens) (UniProt P10828); test: qHTS assay for small molecule antagonists of thyroid hormone receptor beta signaling (AID 588547; active means well fitted inhibition curve with a large enough effect in the signal ratio, with a control signal flat, not every such curve was filed as active; the % refers to the signal ratio); conditions: TR-UAS-bla HEK293, beta-lactamase ratio, antagonist mode, 18 h; stronger effect = lower value
# Outline: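 TR-UAS-bla GripTite HEK293 cells in 2% charcoal/dextran FBS medium were preincubated 4 h at 37 C, given compound (0.59 nM to 92 uM) plus 0.4 nM T3 (final) for 18 h, then CCF4 for 2 h at RT; Hill fit gave IC50.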
# [16] = qHTS assay for small molecule agonists of the antioxidant response element (ARE) signaling pathway (AID 651741; active means well fitted activation curve with a large enough effect in the signal ratio; the % refers to the signal ratio; further: potency means the concentration at half of the fitted maximal effect; on activation: % of control where 0% means no effect)
# Outline: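 Reporter: beta-lactamase under ARE, stably in HepG2. Exposure: 16 h, 37 C, compounds delivered in DMSO by pin tool after 5 h cell preincubation. Readout: FRET substrate fluorescence after 2 h at RT.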
# [17] = target: Glutaminase kidney isoform, mitochondrial (Homo sapiens) (UniProt O94925); test: qHTS for Inhibitors of Glutaminase (GLS): LOPAC Validation (AID 624146; active means well fitted curve in the direction sought with a large enough effect; an effect the other way counts as inactive or inconclusive;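 further: glutamate product detected by oxidase and peroxidase coupled Amplex red fluorescence gain; on the % scale 0 is the no-effect control and ±100 the full control effect; nearly all actives have a fitted effect of over 60% in size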); conditions: glutaminase enzyme activity inhibition; at 46.1 µM (top of the series)
# Outline: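 Compounds were pin-transferred onto hKGA, after which L-glutamine (1 mM solution) and a detection mix of glutamate oxidase, HRP and Amplex Red were added. Initial and 30 min RT fluorescence reads were collected.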
# [18] = target: Glucagon-like peptide 1 receptor (Homo sapiens) (UniProt P43220); test: qHTS of GLP-1 Receptor Agonists: LOPAC Validation (AID 624148; active means well fitted curve in the direction sought with a large enough effect; an effect the other way counts as inactive or inconclusive;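 further: 0% is about no effect; higher luminescence signal means agonism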); conditions: GLP-1R agonist cell assay; at 46.1 µM (top of the series)
# Outline: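 HEK293 cells stably co-expressing a cAMP-responsive luciferase reporter and a hypersensitive GLP-1R were plated 12 h at 37 °C and exposed to compounds for 4-6 hr at 37 °C, 5% CO2. Luminescence was read 12 min after adding detection reagent.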
# [19] = HTS Assay for Allosteric Antagonists of the Human D2 Dopamine Receptor: Hit Validation in HTRF (AID 624455; active means well fitted curve in the direction sought with a large enough effect; an effect the other way counts as inactive or inconclusive;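 further: stable D1 dopamine receptor cell line scored for blocking the D1 response; on the % scale 0 is the no-effect control and ±100 the full control effect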); conditions: D2 receptor cells, HTRF cAMP read-out, antagonist mode; at 46.1 µM (top of the series)
# Outline: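 Inhibition of the D1-mediated response was measured by HTRF. Cells used were a line stably expressing the D1 dopamine receptor.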
structure (smiles),measurement,setting,value
O=[N+]([O-])[O-].[NH4+],activation,[1],inactive: 3.73%
same,Potency,[2],inactive
same,activation,[3],inactive: 7.33%
same,max response,[4],inactive: 2.29%
same,"activity change, negative = inhibition",[5]; at 58.6 µM (top of the series),inactive: 4.38%
same,"activity change, negative = cytotoxicity",[6],inactive: -3.8%
same,"ratio activity, negative = inhibition",[7],inactive: -0.059%
same,activation,[8],inactive: -0.637%
CC(C)OP(=O)(F)OC(C)C,"activity change, negative = inhibition",[9]; at 46.1 µM (top of the series),inactive: 18.3%
same,"activity change, negative = inhibition",[5]; at 58.6 µM (top of the series),inactive: 3.54%
same,Potency,[10],inactive
same,"ratio activity, negative = inhibition",[7],inactive: 1.14%
CN(C)CCS,"activity change, negative = inhibition",[9]; at 46.1 µM (top of the series),inactive: 10.1%
same,"activity change, negative = inhibition",[5]; at 58.6 µM (top of the series),inactive: -0.921%
same,"activity change, negative = cytotoxicity",[6],inactive: 11.6%
same,Potency,[10],inactive
same,"ratio activity, negative = inhibition",[7],inactive: 0.317%
CCOP(=O)(CC)Oc1ccc([N+](=O)[O-])cc1 (stereo unspecified),"activity change, negative = inhibition",[5]; at 58.6 µM (top of the series),inactive: -5.96%
Cc1cccc([N+](=O)[O-])c1[N+](=O)[O-],"activity change, negative = inhibition",[11],inactive: 7.72% and inactive: 20.6%
same,activation,[1],inactive: 3.16% and inactive: -10.7%
same,Potency,[2],active: 39.8 µM
same,"activity change, negative = inhibition",[12],inactive: 3.07% and inactive: 8.51%
same,activation,[13],inactive: 3.97% and inactive: -2.38%
same,activation,[3],inactive: -4.84%
same,activation,[14],inactive: -5.53% and inactive: -9.18%
same,max response,[4],inactive: -3.22% and inactive: 4.15%
same,inhibition,[15],inactive: 8.73% and inactive: -7.84%
same,"activity change, negative = inhibition",[9]; at 92.2 µM (top of the series),inactive: 3.35%
same,"activity change, negative = inhibition",[5]; at 123 µM (top of the series),inactive: -13.5%
same,Potency,[16],active: 9.44 µM and active: 6.86 µM
same,activation,[8],inactive: -2.1% and inactive: -0.897%
Cc1ccc([N+](=O)[O-])cc1[N+](=O)[O-],activation,[1],inactive: 6.25%
same,"activity change, negative = inhibition",[12],inactive: 3.04% and inactive: 3.7%
same,activation,[13],inactive: -0.552% and inactive: 1.36%
same,activation,[3],inactive: 4.16% and inactive: 28.3%
same,activation,[14],inactive: -13.8% and inactive: -4.76%
same,max response,[4],inactive: 5.79% and inactive: 7.77%
same,inhibition,[15],inactive: -3.15%
same,Potency,[16],active: 54.5 µM
same,activation,[8],inactive: -1.91% and inactive: -0.703%
[NH4+].[O-][Cl+3]([O-])([O-])[O-],activation,[1],inactive: 2.27%
same,activation,[3],inactive: 0.445%
same,max response,[4],inactive: 3.9%
same,"activity change, negative = inhibition",[9]; at 92.2 µM (top of the series),inactive: -18.9%
same,Potency,[16],inactive
same,activation,[8],inactive: -0.251%
N#[O+].[C-]#N.[C-]#N.[C-]#N.[C-]#N.[C-]#N.[Fe+2].[Na+].[Na+],"activity change, negative = inhibition",[9]; at 46.1 µM (top of the series),inactive: 2.98%
same,"activity change, negative = cytotoxicity",[6],inactive: -6.91%
same,Potency,[10],inactive
same,"ratio activity, negative = inhibition",[7],inactive: 3.13%
same,"activity change, negative = inhibition",[17],inactive: 155%
same,activation,[18],inactive: 0.896%
same,"activity, negative = inhibition",[19],inactive: 0.153%
CC(C)N(CCCl)C(C)C,"activity change, negative = inhibition",[5]; at 58.6 µM (top of the series),inactive: -3.89%
O=[N+]([O-])OCC(CO[N+](=O)[O-])(CO[N+](=O)[O-])CO[N+](=O)[O-],"activity change, negative = inhibition",[9]; at 46.1 µM (top of the series),inactive: -0.398%
same,"activity change, negative = inhibition",[5]; at 58.6 µM (top of the series),inactive: 13%
same,"activity change, negative = cytotoxicity",[6],inactive: 3.87%
same,Potency,[10],inactive
same,"ratio activity, negative = inhibition",[7],active: -22.9%
CCC(C)(OO)OOC(C)(CC)OO (stereo unspecified),"activity change, negative = inhibition",[11],inactive: -0.853%
same,activation,[1],inactive: 2.06% and inactive: -5.47%
same,Potency,[2],inactive
same,"activity change, negative = inhibition",[12],inactive: 7.54% and inactive: 4.03%
same,activation,[13],inactive: 1.85% and inactive: 4.95%
same,activation,[3],inactive: 1.72% and inactive: 1.55%
same,activation,[14],inactive: 6.87% and inactive: -0.407%
same,max response,[4],inactive: 4.29% and inactive: 1.38%
same,inhibition,[15],inactive: 6.52% and inactive: -4.48%
same,"activity change, negative = inhibition",[9]; at 92.2 µM (top of the series),inactive: -1.07%
same,Potency,[16],inactive
same,activation,[8],inactive: -0.632% and inactive: -0.603%

# Reference: PubChem BioAssay (NCATS)
